Laboratory results published in patent EP2948187B1, “HETEROCYCLES AND THEIR RADIOLABELED ANALOGS USEFUL AS COX-1 SELECTIVE INHIBITORS” (Universita' Degli Studi di Bari, priority 2013, dated 2014).

Protein sequences, listed by entry. Tags and fused reporters are not part of them. Residues count along the entry.
UniProt P05979, 25-600: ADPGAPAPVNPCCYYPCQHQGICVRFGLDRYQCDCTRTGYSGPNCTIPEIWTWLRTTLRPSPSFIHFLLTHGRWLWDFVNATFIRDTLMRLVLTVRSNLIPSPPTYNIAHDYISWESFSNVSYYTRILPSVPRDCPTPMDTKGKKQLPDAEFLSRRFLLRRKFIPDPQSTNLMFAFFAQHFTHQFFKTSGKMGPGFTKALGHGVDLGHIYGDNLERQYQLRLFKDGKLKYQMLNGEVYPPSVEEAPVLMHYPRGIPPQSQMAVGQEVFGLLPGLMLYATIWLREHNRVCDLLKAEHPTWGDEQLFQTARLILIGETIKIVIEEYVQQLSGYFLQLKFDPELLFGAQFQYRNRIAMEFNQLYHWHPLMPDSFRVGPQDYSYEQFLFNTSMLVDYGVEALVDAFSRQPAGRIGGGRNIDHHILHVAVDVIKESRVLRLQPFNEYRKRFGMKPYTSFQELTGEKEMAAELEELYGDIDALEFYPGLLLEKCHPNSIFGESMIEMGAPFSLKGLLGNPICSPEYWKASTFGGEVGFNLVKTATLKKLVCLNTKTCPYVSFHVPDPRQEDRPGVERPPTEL

Molecular target: COX-1 (Ovis aries, UniProt P05979)
Test: COX-1 inhibition assay (as disclosed in Chem. Med. Chem. 2012, 7, 629-641)
Type: biochemical
Experimental: The biological assays were carried out as disclosed in Chem. Med. Chem. 2012, 7, 629 - 641.

With Nc1onc(-c2ccc(Cl)o2)c1-c1ccccc1 [(XIII), 3-(5-chlorofuran-2-yl)-4-phenylisoxazol-5-amine] the IC50 was 1.1 µM.

Work on Cc1onc(-c2ccc(Cl)o2)c1-c1ccc(N)cc1 [(XIV), 3-(5-chlorofuran-2-yl)-4-(4-aminophenyl)-5-methylisoxazole] yielded an IC50 of 4.3 µM.
